Measurements as given in PubChem BioAssay AID2797 (The Scripps Research Institute Molecular Screening Center, 2010).
The entries are a selection whose mix differs from that of the whole data set. Active and inactive are the calls of the source.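 Rule for the calls: active = activation above the mean activation of all tested compounds plus 3 SD, per screening run (cut at about 20% in these data); inactive = the rest.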

Protein sequences, listed by entry. Tags and fused reporters are not part of them.
UniProt P37288, whole entry: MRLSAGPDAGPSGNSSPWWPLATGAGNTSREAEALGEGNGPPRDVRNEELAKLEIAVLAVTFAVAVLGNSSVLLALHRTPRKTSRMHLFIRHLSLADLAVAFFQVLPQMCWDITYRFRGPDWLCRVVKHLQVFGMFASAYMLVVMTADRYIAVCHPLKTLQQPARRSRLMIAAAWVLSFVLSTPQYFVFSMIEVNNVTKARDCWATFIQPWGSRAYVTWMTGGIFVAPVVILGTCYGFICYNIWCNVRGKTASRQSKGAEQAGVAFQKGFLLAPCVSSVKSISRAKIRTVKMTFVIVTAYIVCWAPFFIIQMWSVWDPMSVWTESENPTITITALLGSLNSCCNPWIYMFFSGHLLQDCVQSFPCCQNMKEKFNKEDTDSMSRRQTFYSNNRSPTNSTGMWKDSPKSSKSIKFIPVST

These compounds were tested against Vasopressin V1a receptor (Homo sapiens) (UniProt P37288) (assay: V1R activation via calcium rise – fluorescence, CHO-V1R cells, counter-screen for OXTR agonist project, primary screen (AID 2797;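 note: signal is peak over basal fluorescence ratio across a 100 second FLIPR read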)). Settings: Fluo-8 calcium fluorescence, agonist mode, at 3 µM, stronger effect = higher value, 0% DMSO, 100% 3 nM vasopressin.

SMILES | activation
CCC(=O)N(c1ccccc1)C1(COC)CCN(CCn2nnn(CC)c2=O)CC1 | inactive: 0.22%
CCC(=O)N(c1ccccc1)C1(COC)CCN(CCc2cccs2)CC1 | inactive: -0.42%
